# Target: DLK kinase (N-terminally GST-tagged DLK, catalytic domain amino acid 1-520) (Homo sapiens (Human), UniProt Q12852)
# Protein sequences, listed by entry. Tags and fused reporters are not part of them. Residues count along the entry.
# UniProt Q12852, 1-520: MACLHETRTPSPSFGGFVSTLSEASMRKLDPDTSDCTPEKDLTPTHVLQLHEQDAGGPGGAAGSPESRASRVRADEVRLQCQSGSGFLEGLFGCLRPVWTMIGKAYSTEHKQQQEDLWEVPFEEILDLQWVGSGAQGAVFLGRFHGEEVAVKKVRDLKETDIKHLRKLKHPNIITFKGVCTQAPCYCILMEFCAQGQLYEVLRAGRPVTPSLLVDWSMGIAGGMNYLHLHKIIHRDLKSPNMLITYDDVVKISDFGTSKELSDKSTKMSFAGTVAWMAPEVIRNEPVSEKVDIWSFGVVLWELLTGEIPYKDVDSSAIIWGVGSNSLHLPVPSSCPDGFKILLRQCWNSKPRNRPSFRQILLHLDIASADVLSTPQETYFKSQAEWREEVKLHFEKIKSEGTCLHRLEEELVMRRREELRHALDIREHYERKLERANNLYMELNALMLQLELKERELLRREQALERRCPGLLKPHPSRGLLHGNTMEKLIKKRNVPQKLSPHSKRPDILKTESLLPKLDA
# Experiment: DLK TR-FRET assay
# Format: biochemical
# Conditions: 30 μM ATP, MKK4 K131M substrate, read-out: DLK HTRF (Ki)
# Description: DLK TR-FRET assay: DLK kinase reactions (20 μL) containing 5 nM N-terminally GST-tagged DLK (catalytic domain amino acid 1-520) (Carna Bioscience), 40 nM N-terminally HIS-tagged MKK4 K131M substrate, and 30 μM ATP in kinase reaction buffer (50 mM HEPES, pH 7.5, 0.01% Triton X-100, 0.01% Bovine γ-Globulins, 2 mM DTT, 10 mM MgCl2 and 1 mM EGTA), and testing compound 1:3 serial diluted starting at 20 uM were incubated at ambient temperature for 60 minutes in 384 well OptiPlate (Perkin Elmer). To quench kinase reactions and detect phosphorylated MKK4, 15 μL of TR-FRET antibody mixture containing 2 nM anti-phosphorylated MKK4 labeled with Europium cryptate (Cisbio) and 23 nM anti-HIS labeled with D2 (Cisbio) in detection buffer (25 mM Tris pH 7.5, 100 mM NaCl, 100 mM EDTA, 0.01% Tween-20, and 200 mM KF) was added to the reaction mixture. The detection mixture was incubated for 3 hours at ambient temperature and the TR-FRET was detected with an EnVision multilabel plate reader (Perkin-Elmer) using the LANCE/DELFIA Dual Enh label from Perkin-Elmer (excitation filter: UV2 (TRF) 320 and emission filters: APC 665 and Europium 615).
row,SMILES,Ki [nM]
1,"FC1(F)CCN(c2nc(Nc3cc(C(F)(F)F)ccn3)cc(C3CCNCC3)n2)C1 [Example 92, [2-(3,3-Difluoro-pyrrolidin-din-1-yl)-6-piperidin-4-yl-pyrimidin-4-yl]-(4-tri-fluoromethyl-pyridin-2-yl)-amine]",2.43
2,"N#CCC(=O)N1CCC(c2cc(Nc3cc(C(F)(F)F)ccn3)nc(N3CCCC3)n2)CC1 [Example 161, 3-Oxo-3-{4-[2-pyrrolidin-1-yl-6-(4-trifluoromethyl-pyridin-2-ylamino)-pyrimidin-4-yl]-piperidin-1-yl}-propionitrile]",15.3
